According to paper doi:10.1101/2025.02.24.640009:

Biological target: Cy5-PLN20 (cytoplasmic domain of phospholamban, residues 1-20) (UniProt P26678)
Experiment: single-molecule diffusivity and electrokinetic mobility in an ABEL trap; 10 pM Cy5-PLN20 or Cy5-SP20 trapped, 0.26 uM PKAc, 0.4 uM lambda phosphatase, 20 mM HEPES pH 7.2, 2 mM Trolox, 100 mM NaCl, 5 mM MgCl2, 0.4 mM MnCl2, 0.4 mM ATP; 23 °C; complex seen as low-D state

time bound: 20 ms
Substance: cAMP-dependent Protein Kinase A catalytic subunit (from UniProt P05132 1-351) (enzyme)
